Chains of the proteins cited; added tags and fusions are not shown.
UniProt P08908, whole entry, species assumed: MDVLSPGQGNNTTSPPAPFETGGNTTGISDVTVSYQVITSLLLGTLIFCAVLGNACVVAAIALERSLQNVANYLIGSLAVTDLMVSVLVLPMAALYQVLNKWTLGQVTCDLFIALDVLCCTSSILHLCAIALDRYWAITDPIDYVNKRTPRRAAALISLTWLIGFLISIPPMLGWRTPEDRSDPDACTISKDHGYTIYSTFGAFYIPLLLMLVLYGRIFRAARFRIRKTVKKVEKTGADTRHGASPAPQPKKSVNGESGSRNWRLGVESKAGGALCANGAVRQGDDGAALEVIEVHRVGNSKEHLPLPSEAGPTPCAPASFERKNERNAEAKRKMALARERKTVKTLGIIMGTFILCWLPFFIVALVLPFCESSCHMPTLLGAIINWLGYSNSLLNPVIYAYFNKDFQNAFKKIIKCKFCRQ

In patent US20260356809A1 (The United States of America, as represented by the …, priority 2022, published 2026):

Target: 5-HT1A (Homo sapiens, UniProt P08908)
Assay: 5-HT1A [35S]GTPγS, agonist
Format: biochemical
Conditions: agonist mode

COCCC(=O)N[C@H]1CC[C@H](CCN2CCN(c3cccc(OC)c3F)CC2)CC1 [Compound 13c, N-(trans-4-(2-(4-(2-Fluoro-3-methoxyphenyl)piperazin-1-yl)ethyl)cyclohexyl)-3-methoxypropanamide]
5-HT1A [35S]GTPγS Emax ± SEM: 86.6 ± 3.5%
